Reference: ChEMBL document CHEMBL1155471, “Discovery of potent, balanced and orally active dual NK1/NK3 receptor ligands” (Bioorg Med Chem Lett, 2010)

The chains behind the UniProt entries cited, without tags or fusion partners.
UniProt P25103, whole entry: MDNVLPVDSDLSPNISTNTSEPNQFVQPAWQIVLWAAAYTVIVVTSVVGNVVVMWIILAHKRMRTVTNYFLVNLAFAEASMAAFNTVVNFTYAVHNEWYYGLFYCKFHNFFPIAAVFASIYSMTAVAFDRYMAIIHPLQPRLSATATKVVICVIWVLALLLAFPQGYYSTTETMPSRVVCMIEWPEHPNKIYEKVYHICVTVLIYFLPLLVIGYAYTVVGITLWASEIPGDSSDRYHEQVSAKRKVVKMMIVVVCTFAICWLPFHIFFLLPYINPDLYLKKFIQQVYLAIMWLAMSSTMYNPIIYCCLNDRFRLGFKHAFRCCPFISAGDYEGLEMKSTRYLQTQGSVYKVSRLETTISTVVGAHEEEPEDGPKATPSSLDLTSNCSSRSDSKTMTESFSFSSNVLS

Molecular target: Substance-P receptor (Homo sapiens, UniProt P25103)
Assay: Displacement of [3H]substance P from human NK1 receptor expressed in CHO cells
Assay type: cell-based

Structure (SMILES)	Ki [nM]
CN(C(=O)C(C)(C)c1cc(C(F)(F)F)cc(C(F)(F)F)c1)c1cnc(N2C[C@H](O)C[C@H]2CO)cc1-c1ccccc1Cl	0.61
CN(C(=O)C(C)(C)c1cc(C(F)(F)F)cc(C(F)(F)F)c1)c1cnc(N2C[C@@H](O)C[C@H]2CO)cc1-c1ccccc1Cl	0.51
